Results on 1 compound are retold here after ChEMBL document CHEMBL1135819, “N-[3-(1H-imidazol-4-ylmethyl)phenyl]ethanesulfonamide (ABT-866, 1),(1) a novel alpha(1)-adrenoceptor ligand with an enhanced in vitro and in vivo profile relative to phenylpropanolamine and midodrine” (J Med Chem, 2002).

Chains of the proteins cited; added tags and fusions are not shown.
UniProt P23944, whole entry: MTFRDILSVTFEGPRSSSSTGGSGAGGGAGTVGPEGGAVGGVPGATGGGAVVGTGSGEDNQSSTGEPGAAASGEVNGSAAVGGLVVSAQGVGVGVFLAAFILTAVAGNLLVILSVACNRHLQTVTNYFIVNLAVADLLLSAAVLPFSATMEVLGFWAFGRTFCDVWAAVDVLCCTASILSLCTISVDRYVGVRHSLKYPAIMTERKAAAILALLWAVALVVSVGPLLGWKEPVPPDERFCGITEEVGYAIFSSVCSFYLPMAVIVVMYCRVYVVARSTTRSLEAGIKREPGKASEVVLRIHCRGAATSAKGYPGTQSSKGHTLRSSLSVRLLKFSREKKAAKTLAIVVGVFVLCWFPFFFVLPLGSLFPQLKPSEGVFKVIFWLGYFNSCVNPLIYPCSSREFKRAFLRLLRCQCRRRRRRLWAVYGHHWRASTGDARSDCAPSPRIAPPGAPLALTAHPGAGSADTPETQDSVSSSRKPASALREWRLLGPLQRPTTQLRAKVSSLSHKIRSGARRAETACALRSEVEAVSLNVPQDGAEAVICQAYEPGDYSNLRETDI

Active and inactive are the calls of the source. The calls are words filed in the database; no cut-off is given here.

The target of this assay is Alpha-1D adrenergic receptor (Rattus norvegicus) (UniProt P23944). To be noted: Aorta; 10 uM.

As to `CCS(=O)(=O)Nc1cccc(Cc2c[nH]cn2)c1`, the NA result was “inactive”.
